High-throughput results (PubChem)
Hits are enriched below; roughly 2.8% of the tested compounds scored in any of these assays.
PGC1a acetyl inh – modulators of PGC1a acetylation; U2OS PGC1a acetylation, AlphaScreen anti-acetyl-lysine; with virally co-expressed GCN5 acetyltransferase; inhibition, % at 15.6 µM; 350,000 tested, 0.17% active;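 active = every replicate shows inhibition of at least 40%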;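 note: 0% = neutral control wells and 100% = positive control wells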
Yeast UUG start – yeast start codon fidelity modulation. S. cerevisiae UUG-firefly luciferase reporter, luminescence/redox ratio. activity score, % at 18.7 µM. 0.13% of 350,000 active;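 active = replicate mean at a twofold rise or more, about +100% in these data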;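 also: firefly luciferase made from a UUG start codon reports start codon fidelity; reporter light over untreated wells divided by growth signal over untreated wells; some hits fall short of that in this replicate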
PglD inh – PglD (C. jejuni) enzyme inhibition; 360,000 tested, 0.098% active; AID 602405; inhibition, % at 12.5 µM; purified PglD enzyme, DTNB colorimetric CoA detection; in the data active = inhibition above about 16%, passing the limit was not always enough
esBAF inh – blocks esBAF chromatin remodeling in mouse ES cells | Bmi1-luciferase knock-in reporter, 24 h; 100% = twice the neutral-well signal | reporter increase, % at 12.5 µM | 350,000 tested, 2% active; in the data active = activation above about 40%;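 note: 0% = median of the plate's neutral control wells and 100% = double that signal; a rise in the Bmi1 reporter signal indicates esBAF inhibition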
E-selectin induc – induces E-selectin expression in human endothelial cells | P16581 | HUVEC E-selectin immunofluorescence imaging; normalized: neutral wells 0, TNF-alpha wells 100 | AID 686992 | activation, % at 7.58 µM | 260,000 tested, 0.37% active;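 active = mean E-selectin-positive cell signal at least 10% of the positive control, reached in at least 60% of replicates, without over 20% cell loss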
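Test system: HUVEC | Signal: Immunofluorescence imaging | Read-out: Percent E-selectin-positive cells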
Statin myotox sup – protects C2C12 myotubes from simvastatin toxicity; AID 602340; rescue of ATP level, % at 7.49 µM; ATP luminescence, 48 h; scaled: DMSO 0, geranylgeraniol control 100; 330,000 tested, 0.78% active;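 active = mean ATP rescue above about 67%, or every replicate alone reaching that limit, limit read from the data, passing the limit was not always enough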;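 note: myotubes were challenged with 10 µM simvastatin during compound exposure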
The depositor's hits bear a star; . = not tested or not shown.

Short forms – A = PGC1a acetyl inh; B = Yeast UUG start; C = PglD inh; D = esBAF inh; E = E-selectin induc; F = Statin myotox sup
COc1ccc(-c2coc3cc(O)ccc3c2=O)cc1OC
  A: -26	B: -14	C: -3	D: 59*	E: .	F: 2
COc1ccccc1-c1coc2cc(O)cc(O)c2c1=O
  A: 0	B: -7	C: -1	D: 46*	E: .	F: -14
COc1ccc(-c2coc3cc(O)cc(O)c3c2=O)cc1OC
  A: -4	B: .	C: .	D: 54*	E: 1	F: 12
CCC(=O)Nc1ccc2c(c1)C(=O)N(C)C[C@@H](OC)[C@@H](C)CN(C(=O)NC(C)C)[C@@H](C)CO2
  A: -12	B: -7	C: -2	D: 0	E: 0	F: 0
COc1ccc(CCN2C(=O)CCC2(C)C(=O)NCc2cccnc2)cc1OC (stereo not drawn)
  A: 21	B: -11	C: -2	D: 2	E: .	F: 22
COc1ccc(CN2C(=O)CCC2(C)C(=O)NCc2cccnc2)c(OC)c1 (stereo not drawn)
  A: -11	B: 4	C: -7	D: 9	E: .	F: 92*
S=C1Nc2ccccc2CS1
  A: .	B: -12	C: -3	D: .	E: 0	F: .
S=C1Cc2ccccc2N1
  A: -7	B: -24	C: 6	D: -45	E: .	F: 74*
O=C(NC[C@@H]1CC[C@H]2[C@H](CN2S(=O)(=O)c2ccccc2[N+](=O)[O-])O1)Nc1ccccc1
  A: -18	B: .	C: .	D: .	E: .	F: .
CC(=O)N/N=C\c1ccccc1OC/C=C/c1ccccc1
  A: 3	B: -3	C: 0	D: 70*	E: .	F: -15
O=C(c1cccc(F)c1)N1CC(=O)N2[C@H](C1)[C@H](c1ccc(C3=CCCC3)cc1)[C@@H]2CO
  A: 0	B: .	C: .	D: .	E: 0	F: .
O=C(Cn1nnc(-c2ccc(OCc3ccccc3F)cc2)n1)N1CCOCC1
  A: .	B: -11	C: 2	D: 41*	E: .	F: 5
Fc1ccccc1Cn1nnc(-c2ccc3c(c2)OCO3)n1
  A: 3	B: -16	C: 1	D: 22	E: .	F: 11
COc1ccc(-c2nnn(CC(=O)N3CCOCC3)n2)cc1
  A: 4	B: 6	C: -7	D: -1	E: .	F: 7
COc1ccc(-c2nnn(Cc3ccccc3F)n2)cc1
  A: -4	B: .	C: .	D: 64*	E: .	F: 2
CN(C)c1ccc(-c2nnn(Cc3ccccc3Br)n2)cc1
  A: -28	B: -10	C: 5	D: 94*	E: .	F: 10
CCNC(=O)C[C@H]1CC[C@@H]2[C@H](COc3ccc(NS(=O)(=O)c4ccccc4C)cc3C(=O)N2C)O1
  A: 2	B: -12	C: 1	D: 4	E: 0	F: 8
Cc1cccc(OC(C)C(=O)N/N=C\c2ccncc2)c1 (stereo not drawn)
  A: 15	B: -10	C: 5	D: -7	E: 372*	F: 4
CC(Oc1ccc(-c2ccccc2)cc1)C(=O)N/N=C/c1cccnc1 (stereo not drawn)
  A: 1	B: -21	C: 2	D: 6	E: .	F: 2
O=C(CCC1COc2ccccc2O1)Nc1ccccn1 (stereo not drawn)
  A: 1	B: -8	C: 1	D: 3	E: .	F: 155*
Cc1cc(Cl)ccc1OCCCC(=O)N1CCCCC1
  A: 3	B: -7	C: -1	D: 60*	E: .	F: 1
Cc1ccc(S(=O)(=O)N2CCN(C(=O)CCCOc3ccc(Cl)cc3C)CC2)cc1
  A: .	B: .	C: .	D: 0	E: 4	F: -8
Cc1cc(Cl)ccc1OCCCC(=O)N1CCOCC1
  A: -1	B: 8	C: 0	D: 59*	E: .	F: 17
CCOc1ccc(N/C=C/C(=O)c2ccc3ccccc3c2)c([N+](=O)[O-])c1
  A: -4	B: -20	C: -4	D: 50*	E: .	F: -11
CCOc1ccc(NC(=O)COc2ccccc2)c([N+](=O)[O-])c1
  A: -1	B: .	C: .	D: 62*	E: 0	F: 16

Three compounds already listed, sorted by SMILES length, ascending.
Short forms – A = PGC1a acetyl inh; B = Yeast UUG start; C = PglD inh; D = esBAF inh; E = E-selectin induc; F = Statin myotox sup
CC(Oc1ccc(-c2ccccc2)cc1)C(=O)N/N=C/c1cccnc1 (stereo not drawn)
  A: 1	B: -21	C: 2	D: 6	E: .	F: 2
O=C(Cn1nnc(-c2ccc(OCc3ccccc3F)cc2)n1)N1CCOCC1
  A: .	B: -11	C: 2	D: 41*	E: .	F: 5
CCOc1ccc(N/C=C/C(=O)c2ccc3ccccc3c2)c([N+](=O)[O-])c1
  A: -4	B: -20	C: -4	D: 50*	E: .	F: -11

(list continues)
Short forms – A = PGC1a acetyl inh; B = Yeast UUG start; C = PglD inh; D = esBAF inh; E = E-selectin induc; F = Statin myotox sup
CCOc1ccc(NC(=O)c2ccc(Br)o2)c([N+](=O)[O-])c1
  A: -23	B: -23	C: 6	D: 50*	E: .	F: -36
CCOc1ccc(N/C=C/C(=O)c2ccc(C)cc2)c([N+](=O)[O-])c1
  A: 13	B: .	C: .	D: .	E: .	F: .
C[C@@H]1CN([C@@H](C)CO)C(=O)Cc2cc(N(C)C)ccc2O[C@H]1CN(C)S(C)(=O)=O
  A: -3	B: -6	C: .	D: -2	E: 0	F: -23
CCN(CC)C(=O)CN(c1ccc(F)c(Cl)c1)S(C)(=O)=O
  A: 7	B: -17	C: 5	D: -6	E: .	F: 70*
CCN(CC)C(=O)CN(c1ccc2c(c1)OCO2)S(C)(=O)=O
  A: -10	B: -15	C: -5	D: 3	E: .	F: -9
COC(=O)c1ccc(Cn2cc(C(F)(F)F)ccc2=O)cc1
  A: 6	B: .	C: .	D: .	E: .	F: .
COC(=O)c1cn(Cc2ccc(C(F)(F)F)cc2)cc(F)c1=O
  A: -1	B: -18	C: 7	D: 4	E: .	F: 103*
Cc1ccc(OCCn2nc3ccccc3n2)c(C)c1
  A: -3	B: 2	C: 1	D: 55*	E: .	F: 5
CC(C)C[C@H]1CN=C(Nc2ccccc2)N1CCCCc1ccccc1
  A: 11	B: -10	C: -1	D: 1	E: 0	F: 105*
CC(C)CCCN1C(Nc2ccccc2)=NC[C@@H]1CC(C)C
  A: 4	B: -9	C: 1	D: 3	E: 0	F: -12
CCN(CC)c1ccc(S(=O)(=O)N2CCOCC2)cc1NC(=O)CN1C(=O)NC2(CCCC2)C1=O
  A: -3	B: 11	C: -5	D: .	E: 63*	F: .
O=C(CN1C(=O)NC2(CCCCCC2)C1=O)Nc1ccc(S(=O)(=O)N2CCOCC2)cc1
  A: .	B: 3	C: -1	D: -13	E: .	F: 0
Cc1ccc(SCCNC(=S)Nc2cc(C)ccc2C)cc1
  A: 5	B: -21	C: 1	D: 0	E: .	F: 73*
Cc1ccc(SCCNC(=S)Nc2ccc(C)c(C)c2)cc1
  A: 9	B: -24	C: 0	D: 0	E: .	F: -8
C[C@@]12CCC=C[C@H]1[C@H](c1ccc3ccccc3c1Br)N(Cc1ccccc1)C2=O
  A: -6	B: -20	C: 0	D: -1	E: 0	F: 78*
CC(NC(=O)Nc1ccccc1O)(C(F)(F)F)C(F)(F)F
  A: -3	B: 6	C: 0	D: -4	E: .	F: 91*
CC(NC(=O)Nc1ccc(O)cc1)(C(F)(F)F)C(F)(F)F
  A: 12	B: 5	C: 4	D: -7	E: .	F: -1
CCCCOc1cccc(/C=N/NC(=O)c2csc(C)c2C)c1
  A: -2	B: -5	C: -6	D: 13	E: .	F: -17
Cc1scc(C(=O)N/N=C/c2ccc(OC(C)C)cc2)c1C
  A: -12	B: -10	C: -3	D: 47*	E: .	F: -30
C[C@H](CO)N1C[C@H](C)[C@H](CN(C)CC2CC2)OCCCC[C@H](C)Oc2ccc(NS(=O)(=O)c3ccc(Cl)cc3)cc2C1=O
  A: -1	B: 6	C: -3	D: -3	E: 0	F: .
CN(C)CC(=O)N[C@@H]1CC[C@@H](CCNC(=O)C2CC2)O[C@H]1CO
  A: 4	B: .	C: .	D: .	E: 0	F: .
CCc1ccc(-c2ccc(C(=O)O)cc2)nc1
  A: -3	B: -20	C: -5	D: 46*	E: .	F: -8
COc1ccc(C(=O)c2ccc(-c3ccc(OC)cc3)nc2)cc1
  A: 4	B: 1	C: 2	D: 6	E: 0	F: 0
COc1ccc(/C=C(\CC(=O)O)c2nc3ccccc3s2)cc1O
  A: .	B: -20	C: -1	D: 9	E: 1	F: -3
COc1ccc(-c2nn(-c3ccccc3)cc2/C=C(\CC(=O)O)c2nc3ccccc3s2)cc1OC
  A: .	B: -17	C: 1	D: 40*	E: 1	F: -13
O=C(Nc1nc2ccc(Cl)cc2s1)c1ccc(Br)o1
  A: -4	B: -32	C: -4	D: 62*	E: .	F: -3
O=C(Nc1nc2ccc(F)cc2s1)c1ccc([N+](=O)[O-])o1
  A: .	B: -23	C: -4	D: 88*	E: 0	F: 37
COc1ccccc1S(=O)(=O)N1C[C@H](O)COC[C@@H]2O[C@H](CC(=O)O)CC[C@H]21
  A: 6	B: -6	C: 5	D: 3	E: 0	F: -3
